By UniProt entry, the sequences of proteins in these tests, tags left out. Residues count along the entry.
Neuropilin-1 (Homo sapiens), O14786, UniProt O14786, whole entry, looked up: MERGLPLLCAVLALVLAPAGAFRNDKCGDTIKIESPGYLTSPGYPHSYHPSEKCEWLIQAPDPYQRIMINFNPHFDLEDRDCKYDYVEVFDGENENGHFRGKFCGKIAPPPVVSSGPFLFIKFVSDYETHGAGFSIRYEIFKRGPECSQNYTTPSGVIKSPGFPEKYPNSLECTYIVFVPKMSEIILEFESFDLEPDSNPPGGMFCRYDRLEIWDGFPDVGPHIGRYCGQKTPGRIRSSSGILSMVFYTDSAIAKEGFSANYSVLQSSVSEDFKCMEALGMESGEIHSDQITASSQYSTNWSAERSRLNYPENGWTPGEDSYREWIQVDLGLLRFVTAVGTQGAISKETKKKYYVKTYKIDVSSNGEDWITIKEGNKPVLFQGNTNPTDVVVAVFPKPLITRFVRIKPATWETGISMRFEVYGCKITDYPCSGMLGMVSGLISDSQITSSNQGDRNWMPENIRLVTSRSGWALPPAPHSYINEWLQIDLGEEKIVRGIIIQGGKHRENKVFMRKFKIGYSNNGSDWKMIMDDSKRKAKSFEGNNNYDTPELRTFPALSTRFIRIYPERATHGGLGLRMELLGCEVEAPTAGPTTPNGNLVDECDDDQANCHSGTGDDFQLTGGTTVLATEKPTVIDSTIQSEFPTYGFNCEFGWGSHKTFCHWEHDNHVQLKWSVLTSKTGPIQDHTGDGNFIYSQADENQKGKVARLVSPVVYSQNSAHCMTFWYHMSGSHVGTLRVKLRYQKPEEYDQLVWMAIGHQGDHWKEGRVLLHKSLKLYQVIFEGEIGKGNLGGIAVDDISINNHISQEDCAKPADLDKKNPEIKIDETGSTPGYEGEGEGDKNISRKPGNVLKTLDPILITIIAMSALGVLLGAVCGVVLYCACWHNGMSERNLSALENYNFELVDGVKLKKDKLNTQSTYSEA
Melanocortin receptor 4 (Homo sapiens), P32245, UniProt P32245, whole entry, looked up: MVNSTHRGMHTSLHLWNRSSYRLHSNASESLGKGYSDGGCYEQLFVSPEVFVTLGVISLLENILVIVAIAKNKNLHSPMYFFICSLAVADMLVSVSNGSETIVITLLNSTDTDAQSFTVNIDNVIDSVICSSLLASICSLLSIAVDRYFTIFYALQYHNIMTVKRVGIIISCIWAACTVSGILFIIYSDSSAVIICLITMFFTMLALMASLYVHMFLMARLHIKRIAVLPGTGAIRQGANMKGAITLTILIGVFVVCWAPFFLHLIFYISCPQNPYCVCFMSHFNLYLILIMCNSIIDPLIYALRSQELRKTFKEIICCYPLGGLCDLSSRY
ADP-ribosylation factor GTPase-activating protein 1 (Rattus norvegicus), Q62848, UniProt Q62848, 1-136 limits assumed: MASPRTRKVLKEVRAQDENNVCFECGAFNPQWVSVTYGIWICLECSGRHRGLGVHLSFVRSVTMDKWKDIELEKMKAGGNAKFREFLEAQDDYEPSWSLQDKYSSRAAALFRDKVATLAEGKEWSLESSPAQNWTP
ADP-ribosylation factor GTPase-activating protein 1 (Rattus norvegicus), Q62848, UniProt Q62848, whole entry, looked up: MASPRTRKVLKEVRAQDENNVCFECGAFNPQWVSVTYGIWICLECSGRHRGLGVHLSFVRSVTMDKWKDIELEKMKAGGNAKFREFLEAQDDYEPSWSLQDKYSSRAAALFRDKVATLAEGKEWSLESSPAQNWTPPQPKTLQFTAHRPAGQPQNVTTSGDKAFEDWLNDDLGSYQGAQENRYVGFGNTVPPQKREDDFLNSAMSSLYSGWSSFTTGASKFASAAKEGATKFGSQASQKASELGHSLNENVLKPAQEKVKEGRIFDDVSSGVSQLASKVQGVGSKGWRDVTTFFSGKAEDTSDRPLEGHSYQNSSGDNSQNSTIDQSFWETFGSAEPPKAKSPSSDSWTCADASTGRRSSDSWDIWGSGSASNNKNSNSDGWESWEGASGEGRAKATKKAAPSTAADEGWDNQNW

# A selection: hits, their analogues and other compounds. The true share with any hit is near 2.3%.
# ASAP1 GAP inh = inhibitors of human ASAP1 ArfGAP activity, primary screen, biochemical, fluorescence polarization | Arf-GAP with SH3 domain, ANK repeat and PH domain-containing protein 1 (Homo sapiens), … | ASAP1-stimulated ARF1 GTP hydrolysis, GDP FP detection | inhibition, % at 16.5 µM | actives 0.19% (n = 360,000) | AID 624377, 2012; in the data active means inhibition above about 25%;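 further: 0% = vehicle with enzyme and substrate and 100% = no enzyme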
# CendR NRP1 mod = modulators of CendR peptide binding to NRP-1, primary screen, biochemical, fluorescence polarization, uHTS; Neuropilin-1 (Homo sapiens), O14786; FAM-RPARPAR peptide binding to NRP-1; inhibition, % at 25 µM; actives 0.85% (n = 360,000);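 active means inhibition or corrected inhibition above about 18%, plus a signal ratio from 0.5 to 1.5, limit read from the data, passing the limit was not always enough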
# MC4R barr agon = MC4R agonists recruiting beta-arrestin, primary screen, cell-based, luminescence, agonist arm of biased-ligand search; Melanocortin receptor 4 (Homo sapiens), P32245; U2OS MC4R beta-arrestin complementation; percent of melanotan II response, DMSO zero; activation, % at 8.9 µM; actives 0.98% (n = 360,000); AID 540308, 2011;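 active means activation above a per-plate cutoff, the mean activation of sample wells on that plate plus 3 SD, cut at about 8% in these data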
# ARFGAP1 inh = inhibitors of rat ARFGAP1 GAP activity, primary screen, biochemical, fluorescence polarization, GDP tracer; AID 651572, 2012; ADP-ribosylation factor GTPase-activating protein 1 (Rattus norvegicus), Q62848; inhibition, % at 16.5 µM; Arfgap1-stimulated ARF1 GTP hydrolysis, GDP FP detection; actives 0.26% (n = 360,000);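 active means inhibition above a per-plate limit, mean inhibition of low control wells plus 3 SD, cut at about 25% in these data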;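 further: 0% = DMSO wells with enzyme and 100% = wells lacking Arfgap1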
#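 Material: rat Arfgap1 catalytic domain, aa 1-136; also added: human ARF1(Δ1-17)-GTP substrate; compound dosing: one concentration, 16.5 µM, DMSO 1.26%; incubation: GTP hydrolysis reaction 2 h at 25 °C; measured by: Tracer-displacement fluorescence polarization with EDTA stop, 620/688 nm; evaluation: % inhibition from polarization; repeats: one replicate per compound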
# Yeast UUG start-1 = modulators of start codon recognition fidelity in yeast; S. cerevisiae UUG-firefly luciferase reporter, luminescence/redox ratio; activity score, % at 18.7 µM; 0.13% of 350,000 active;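 active = replicate mean at a twofold rise or more, about +100% in these data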;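 also: firefly luciferase made from a UUG start codon reports start codon fidelity; reporter light over untreated wells divided by growth signal over untreated wells; some hits fall short of that in this replicate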
# MC4R antag cAMP = MC4R antagonists of cAMP signaling, primary screen, cell-based, TR-FRET, antagonist arm of biased-ligand search | actives 0.48% (n = 360,000) | inhibition, % at 6.5 µM | MC4R-expressing cells, MTII-stimulated cAMP, LANCE TR-FRET | Melanocortin receptor 4 (Homo sapiens), P32245 | AID 540295, 2011;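 active means inhibition above its plate's cutoff, the mean of tested wells on that plate plus 3 SD, cut at about 29% in these data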;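 further: 0% = Melanotan II alone and 100% = Melanotan II plus saturating MCL0020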
#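 Assay system: U2OS-MC4R stable cell line; Also added: Melanotan II; Technique: Eu-cAMP/anti-cAMP TR-FRET, emission 671 nm; Times: 30-min compound, 1-h challenge, 1-h detection, room temperature.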
# MC4R barr conf = MC4R beta-arrestin agonists, retest, confirmation, cell-based, luminescence, U2OS. shares compounds with MC4R barr agon. U2OS MC4R beta-arrestin recruitment; scaled DMSO 0%, Melanotan II 100%. activation, % at 8.9 µM. actives 31% (n = 2,400). AID 602192, 2012;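 active means mean activation across replicates above the hit cutoff set in the earlier primary screen, cut at about 8% in these data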
# MOR-DOR barr ag = agonists of MOR-DOR heterodimerization, counter-screen for MC4R biased agonist project, cell-based, luminescence | shares compounds with MC4R barr agon | U2OS PathHunter beta-arrestin, beta-gal luminescence; percent of deltorphin B response, DMSO zero | activation, % at 9.2 µM | actives 5.8% (n = 2,400);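 active means mean activation across replicates exceeds the hit threshold derived in the earlier primary screen, cut at about 18% in these data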;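 further: 100% = deltorphin B at 0.9 µM final and 0% = DMSO alone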
# Yeast UUG start-2 = enhancers of UUG start codon usage in yeast, dose response, S. cerevisiae, UUG firefly luciferase, cherry-pick, set 2; 540 tested, under 10 active; activation, % at 38 µM; luminescence, 4 h; 100% means double the DMSO signal; shares compounds with Yeast UUG start-1;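 active means signal increase whose fitted curve reaches an absolute level of 40 at a concentration under 10 µM; inactive means activity opposite to the expected increase, or the rest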
# ASAP1 inh confirm = ASAP1 GAP activity inhibitors, confirmation, biochemical, fluorescence polarization, human, triplicate; AID 624431, 2012; shares compounds with ASAP1 GAP inh; actives 37% (n = 620); ASAP1-stimulated Arf1 GTPase, GDP fluorescence polarization; inhibition, % at 16.5 µM;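 active means mean inhibition over triplicates exceeds the hit threshold derived for the earlier primary screening run, cut at about 25% in these data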
# The depositor's hits bear a star; . = no result.
SMILES,ASAP1 GAP inh,CendR NRP1 mod,MC4R barr agon,ARFGAP1 inh,Yeast UUG start-1,MC4R antag cAMP,MC4R barr conf,MOR-DOR barr ag,ASAP1 inh confirm,others
O=C1c2ccccc2C(=O)c2c(Nc3ccc(CCO)cc3)ccc(O)c21,0,8,19*,-3,active,12,6,6,.,Yeast UUG start-2=-24
C[C@@H]1CN([C@@H](C)CO)C(=O)Cc2cc(NC(=O)c3ccncc3)ccc2O[C@@H]1CN(C)S(=O)(=O)c1ccc(F)cc1,.,.,.,.,-16,.,.,.,.,
Cc1ccc(NC(=O)c2ccc(NCC3CCCO3)c([N+](=O)[O-])c2)cc1Cl (stereo unspecified),34*,-68,34*,14,-6,-2,13*,21*,95*,
Cc1ccc(NC(=O)c2ccc(NCc3ccco3)c([N+](=O)[O-])c2)cc1Cl,26*,-112,11*,11,-2,3,25*,26*,29*,
Cc1ccc(C(=O)NCc2ccco2)cc1[N+](=O)[O-],-6,-12,-1,-3,-7,6,.,.,.,
C[C@@H](NC(=O)C[C@@H]1CC[C@H]2[C@@H](COC[C@H](O)CN2C(=O)Nc2ccccc2)O1)c1ccccc1,.,.,.,.,-4,.,.,.,.,
CCOc1ccc(NC(=S)NC(=O)/C=C/c2ccc(OC)c(OC)c2)c([N+](=O)[O-])c1,35*,4,17*,-17,-27,-2,12*,9,20,
COc1ccc(C(=O)Nc2cccc(-c3cc4ccccc4oc3=O)c2)cc1[N+](=O)[O-],27*,0,13*,24,.,-1,0,3,72*,
CC(=O)Nc1ccc(NC(=O)c2cccc(-c3cc4ccccc4oc3=O)c2)cc1,1,2,-1,-8,-19,10,.,.,.,
C[C@H]1CN([C@@H](C)CO)C(=O)Cc2cc(NS(=O)(=O)c3cn(C)cn3)ccc2O[C@H]1CN(C)S(=O)(=O)c1ccccc1,.,.,.,.,-8,.,.,.,.,
Clc1ccc(OCc2nn3c(-c4ccco4)nnc3s2)c(Cl)c1,26*,-22,21*,5,-11,0,1,7,37*,
O=C(C[C@H]1C=C[C@@H](NC(=O)c2cccnc2)[C@@H](CO)O1)NCc1ccc(Cl)c(Cl)c1,.,.,.,.,2,.,.,.,.,
O=C(c1ccncc1)N1C[C@@H]2[C@H](c3ccccc31)[C@@H](CO)N2C(=O)c1ccncc1,.,.,.,.,-3,.,.,.,.,
c1ccc(-c2cc(-c3nnc4n3N=C(c3ccc5ccccc5c3)CS4)[nH]n2)cc1,25*,-1,32*,11,2,1,14*,5,11,

# Three structures already listed, sorted by molar mass, smallest number first.
SMILES,ASAP1 GAP inh,CendR NRP1 mod,MC4R barr agon,ARFGAP1 inh,Yeast UUG start-1,MC4R antag cAMP,MC4R barr conf,MOR-DOR barr ag,ASAP1 inh confirm,others
O=C1c2ccccc2C(=O)c2c(Nc3ccc(CCO)cc3)ccc(O)c21,0,8,19*,-3,active,12,6,6,.,Yeast UUG start-2=-24
CCOc1ccc(NC(=S)NC(=O)/C=C/c2ccc(OC)c(OC)c2)c([N+](=O)[O-])c1,35*,4,17*,-17,-27,-2,12*,9,20,
C[C@@H](NC(=O)C[C@@H]1CC[C@H]2[C@@H](COC[C@H](O)CN2C(=O)Nc2ccccc2)O1)c1ccccc1,.,.,.,.,-4,.,.,.,.,
